Drawing on the supplement of paper PMC8183993, this text covers nuclei count for one molecule.

Structures can show the parent of a compound that is named as a salt. The lowest values were mostly taken out for another list; the other results follow.

The test system of this experiment is U2OS. Put plainly: nuclei count (viability) relative to DMSO (% of DMSO); higher = more viable cells. As to conditions: 10 µM; 24 h. Here is the method:
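Primary image-based screen in U2OS cells: compounds at 10 uM for 24 h, then a 1 h o-propargyl-puromycin (OPP) pulse, click labelling, and high-throughput microscopy. Mean cytoplasmic OPP intensity and nuclei count were normalised to DMSO wells within each plate (DMSO = 100) and averaged over triplicate plates.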
Regarding `N/C(=N/CCc1ccc(I)cc1)SCCCc1cnc[nH]1` [Iodophenpropit dihydrobromide], the nuclei count was 94.4.
